Laboratory results as given in patent publication US6428816B1, “Carotenoid agent for inhibiting the conversion of epithelial cells to tumors” (Cognis Australia Pty., Ltd., priority 1992, dated 2002).

Test system: normal human melanocytes
Conditions: FIG. 2; immediately following 500 mJ/cm^2 UV-B (0.05 hr); 24 h pre-treatment with 1.0 microgram/ml
Experimental: Human neonatal foreskins were placed in 0.25% trypsin at 4° C. overnight. Following this incubation, the tissue was scraped to recover the melanocytes. The melanocytes were cultured in MCDB 151 (Sigma) medium containing 2% fetal calf serum, 0.3% bovine pituitary extract (Clonetics Corp.), 10 nanograms/ml TPA, 2 mM CaCl2, 5 micrograms/ml insulin and 0.1 mM IBMX (Sigma).
Cells were harvested with 0.25% trypsin and counted on a Coulter Counter (Coulter Instruments). Viability was determined by trypan blue exclusion. DNA synthesis was measured by labelling with (methyl-^3H)-thymidine (2.5 mCi/ml, 20 Ci/mmol, DuPont-New England Nuclear) added to the medium during the last 4 hours of incubation. Melanocytes were harvested using a Ph.D. cell harvester (Cambridge Research Inc.). the amount of radioactivity incorporated was determined by liquid scintillation counting (LS5000TD. Beckman Instruments).
Normal human melanocytes were seeded into the appropriate vessel (6 well plate, 96 well plate, 75 cm or 175 cm flask) and allowed to grow to 50-60% confluency. […] The 0.05 hour time indicates cells were harvested within 3 minutes following UV-B exposure.

SMILES: CC1=C(/C=C/C(C)=C/C=C/C(C)=C/C=C/C=C(C)/C=C/C=C(C)/C=C/C2=C(C)CCCC2(C)C)C(C)(C)CCC1 [beta-carotene]
- increase in cell viability with beta-carotene as compared to UV-B alone: ~20%
